One compound from patent US9414598B2, “Protecting wood with stabilized boron complexes” (priority 2006, dated 2016) can be followed below.

The subject of the data set is Coptotermes formosanus. Conditions: in vivo.

Structures are written as SMILES.

On to `OB(O)O` [Boric acid only, Boric acid], for which the “Termite mortality (%)” value was found to be 95.2%.
